Tested on: SKBR3 tumor xenograft
Assay: SKBR3 xenograft mouse model, antitumor study
Format: in vivo, BALB/c nude mice
Details: 8 mg/kg i.p.; followed until Day 24

trastuzumab
tumor volume after the last drug injection on Day 12: significant reduction in tumor volume
